Data reported in PubChem BioAssay AID652010 (The Scripps Research Institute Molecular Screening Center, 2013).
The list shows a part of the results, in another mix than the full data. Some salts or complexes appear as unconnected parts, following the source record. Active and inactive are the calls of the source.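 The calls were made as follows: active = inhibition above the mean over all tested compounds plus 3 SD (cut at about 3.6% in these data); inactive = the rest.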

Test: relief of DAX-1 repression of SF-1 activity – cell-based, luminescence, SF-1 (NR5A1), full-length DAX-1, primary screen (AID 652010);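 also: 0% = DAX-1 cells with DMSO and 100% = cells lacking DAX-1 with DMSO; higher inhibition means more luminescence from relief of DAX-1 repression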
Details: HEK293T StAR-luciferase reporter, SF-1/DAX-1 repression relief; at 6.8 µM; active compounds read high

| Compound | inhibition |
| --- | --- |
| Cc1nc2ccc3ccccc3c2s1.O=[N+]([O-])c1cc([N+](=O)[O-])c(O)c([N+](=O)[O-])c1 | inactive: 0.71% |
| O=[N+]([O-])c1cc([N+](=O)[O-])c(-c2cnn(-c3ccccc3)c2)c([N+](=O)[O-])c1 | inactive: -1.56% |
| CN(Cc1cccnc1)C(=O)COc1ccc(Cl)c(Cl)c1.O=[N+]([O-])c1cc([N+](=O)[O-])c(O)c([N+](=O)[O-])c1 | inactive: 1.81% |
| O=[N+]([O-])c1cc([N+](=O)[O-])c(-n2nnc3ccccc32)c([N+](=O)[O-])c1 | inactive: -0.42% |
| COc1ccc(-c2ccccn2)cc1.O=[N+]([O-])c1cc([N+](=O)[O-])c(O)c([N+](=O)[O-])c1 | inactive: 1.44% |
| CCCOc1ccc(NP(C)(=O)Oc2ccc(Cl)cc2)cc1 (centres undefined) | inactive: -0.71% |
| CP(=O)(Nc1ccc(SC(F)(F)F)cc1)Oc1ccccc1 (centres undefined) | inactive: -1.28% |
| COc1ccccc1OP(C)(=O)Nc1c(C)cccc1C (centres undefined) | inactive: -0.35% |
| CN1CCCCC1COC(=O)C1(O)c2ccccc2CCc2ccccc21 (centres undefined) | inactive: -0.52% |
| CCOC(=O)C(CC)C1=NC(C)(C)Cc2ccccc21.O=[N+]([O-])c1cc([N+](=O)[O-])c(O)c([N+](=O)[O-])c1 (centres undefined) | inactive: 0.21% |
| O=[N+]([O-])c1cc([N+](=O)[O-])c(Nc2nnnn2CCO)c([N+](=O)[O-])c1 | inactive: 0.26% |
| CC1=NCCc2c1[nH]c1ccccc21.O=[N+]([O-])c1cc([N+](=O)[O-])c(O)c([N+](=O)[O-])c1 | inactive: 0.74% |
| O=C(O)c1cccc(Nc2c([N+](=O)[O-])cc([N+](=O)[O-])cc2[N+](=O)[O-])c1 | inactive: -0.12% |
| Cc1ccc(C)c(NP(C)(=O)Oc2ccccc2)c1 (centres undefined) | inactive: -0.08% |
| Cc1cc(C)cc(OP(C)(=O)Nc2ccccn2)c1 (centres undefined) | inactive: -0.24% |
| CP(=O)(Nc1cccc(Br)c1)Oc1ccccc1 (centres undefined) | inactive: -1.01% |
| CCOC(=O)c1ccc(NP(C)(=O)Oc2cc(C)cc(C)c2)cc1 (centres undefined) | inactive: -0.24% |
| Cc1cc(C)cc(OP(C)(=O)Nc2ccc(C)cc2C)c1 (centres undefined) | inactive: -0.54% |
| COc1ccccc1OP(C)(=O)Nc1cccc(Br)c1 (centres undefined) | inactive: -0.53% |
| COc1ccccc1-c1ccccn1.O=[N+]([O-])c1cc([N+](=O)[O-])c(O)c([N+](=O)[O-])c1 | inactive: 1.58% |
| CCN(CC)CCCOC(=O)C(O)(c1ccccc1)c1ccccc1 | inactive: 1.69% |
| Cc1cc(C)cc(OP(C)(N)=O)c1 (centres undefined) | inactive: 0.93% |
| COc1ccc(OP(C)(=O)Nc2cccc(F)c2)cc1 (centres undefined) | inactive: -0.21% |
| COc1ccccc1OP(C)(=O)Nc1cc(Cl)ccc1C (centres undefined) | inactive: -0.2% |
| Cc1ccc(NP(C)(=O)Oc2ccccc2)c(C)c1 (centres undefined) | inactive: -0.55% |

| Compound | inhibition |
| --- | --- |
| COc1ccccc1OP(C)(=O)Nc1ccc(C)cc1 (centres undefined) | inactive: 0.09% |
| CCOC(=O)c1ccc(NP(C)(=O)Oc2ccccc2)cc1 (centres undefined) | inactive: -0.6% |
| O=[N+]([O-])c1ccc2c(c1)C=Nc1ccccc1O2 | inactive: -0.47% |
| Cc1cccc(C)c1OP(C)(N)=O (centres undefined) | inactive: 0.48% |
| CC(C)(C)c1ccc(OP(C)(=O)Nc2ccc(SC(F)(F)F)cc2)cc1 (centres undefined) | inactive: -0.4% |
| O=[N+]([O-])c1cc([N+](=O)[O-])c(Nc2cccnc2)c([N+](=O)[O-])c1 | inactive: -0.67% |
| CP(=O)(Nc1ccccc1Br)Oc1ccccc1 (centres undefined) | inactive: -0.68% |
| COc1ccccc1OP(C)(=O)Nc1ccccc1 (centres undefined) | inactive: 0.91% |
| CP(=S)(Nn1cnnc1)Oc1ccccc1 (centres undefined) | inactive: -0.29% |
| CP(=O)(Nc1ccccn1)Oc1ccc(Cl)cc1 (centres undefined) | inactive: -0.33% |
| CCOC(=O)c1ccc(NP(C)(=O)Oc2ccc(OC)cc2)cc1 (centres undefined) | inactive: -0.21% |
| O=[N+]([O-])c1cc([N+](=O)[O-])c(O)c([N+](=O)[O-])c1.c1ccc(Oc2ccncc2)cc1 | inactive: -0.73% |
| CCOP(C)(=S)SCC(=O)NC(C)C(=O)O (centres undefined) | inactive: 1.35% |
| Cc1cc(C)cc(OP(C)(=O)Nc2ccc(SC(F)(F)F)cc2)c1 (centres undefined) | inactive: -0.47% |
| CP(=O)(NC(=O)Nc1ccccc1)Oc1ccccc1 (centres undefined) | inactive: -0.32% |
| CCc1ccc(OP(C)(=O)N2CCN(c3ccc([N+](=O)[O-])cc3)CC2)cc1 (centres undefined) | inactive: -0.79% |
| CP(=O)(Oc1ccccc1)OC(c1ccccc1)C(F)(F)F (centres undefined) | inactive: -0.58% |
| Cc1cccc(C)c1OP(C)(=O)Nc1ccc(SC(F)(F)F)cc1 (centres undefined) | inactive: 0.3% |
| CP(=O)(Nc1ccc(SC(F)(F)F)cc1)Oc1ccc(Cl)cc1 (centres undefined) | inactive: -0.04% |
| CN(C)C(=O)c1c([N+](=O)[O-])cc([N+](=O)[O-])cc1[N+](=O)[O-] | inactive: -1.99% |
| COc1ccccc1OP(C)(=O)Nc1ccccc1Br (centres undefined) | inactive: -1.48% |
| CC(C)(C)c1ccc(OP(C)(=O)O)cc1 | inactive: -0.28% |
| CP(=O)(Nc1ccc(Cl)cc1)Oc1ccc(F)cc1 (centres undefined) | inactive: -1.26% |
| O=C(OCCCN1CCCC1)C(O)(c1ccccc1)C1CCCCC1 (centres undefined) | inactive: 0.13% |
| COc1ccccc1OP(C)(=O)Nc1c(C)n(C)n(-c2ccccc2)c1=O (centres undefined) | inactive: 0.11% |

| Compound | inhibition |
| --- | --- |
| CCc1ccc(OP(C)(=O)Nc2cccnc2)cc1 (centres undefined) | inactive: 0.63% |
| CP(=O)(Oc1ccccc1)N1CCOC1=O (centres undefined) | inactive: -0.68% |
| COc1ccc(OP(C)(=O)Nc2ccc(Br)cc2)cc1 (centres undefined) | inactive: 0.09% |
| CCN(CC)CC(O)COC(=O)C(O)(c1ccccc1)C1CCCCC1 (centres undefined) | inactive: 0.23% |
| CCOC(=O)c1ccc(NP(C)(=O)Oc2ccc(Cl)cc2)cc1 (centres undefined) | inactive: -0.97% |
| CP(=O)(OC12CC3CC(CC(C3)C1)C2)OC12CC3CC(CC(C3)C1)C2 | inactive: -0.76% |
| Nc1ccc2c(ccc3cccnc32)n1.O=[N+]([O-])c1cc([N+](=O)[O-])c(O)c([N+](=O)[O-])c1 | inactive: 0.44% |
| CCCCCCCCCCCCCCCC1C[N+](C)(C)CCOP(C)(=O)O1 (centres undefined) | inactive: -0.67% |
| CP(=O)(Nc1ccc(Cl)cc1Cl)Oc1ccccc1 (centres undefined) | inactive: -0.11% |
| CP(=O)(OCCOc1ccccc1)OCCOc1ccccc1 | inactive: 1.13% |
| COc1ccccc1OP(C)(=O)Nc1ccc(C)c(C)c1 (centres undefined) | inactive: -0.19% |
| COc1ccc(OP(C)(=O)Nc2ccccc2Br)cc1 (centres undefined) | inactive: -0.08% |
| Cc1cc(C)cc(OP(C)(=O)Nc2cccc(C(F)(F)F)c2)c1 (centres undefined) | inactive: 0.22% |
| O=C1C(O)=C([N+](=O)[O-])C(=O)C(O)=C1[N+](=O)[O-] | inactive: -0.18% |
| COc1ccccc1OP(C)(=O)Nc1ccc(C)cc1C (centres undefined) | inactive: 0.41% |
| CP(=O)(Nc1ccccn1)Oc1ccccc1 (centres undefined) | inactive: 0.05% |
| CCc1ccc(OP(C)(=O)O)cc1 | inactive: -0.59% |
| Cc1c(NP(C)(=O)Oc2ccc(C(C)C)cc2)c(=O)n(-c2ccccc2)n1C (centres undefined) | inactive: 0.12% |
| O=[N+]([O-])c1cc([N+](=O)[O-])c(Nc2ccccn2)c([N+](=O)[O-])c1 | inactive: -3.42% |
| COc1ccc(OP(C)(=O)Nc2ccccn2)cc1 (centres undefined) | inactive: 0.11% |
| CN(C)CCOC(=O)C(O)(c1ccccc1)C1CCCC1 (centres undefined) | inactive: 0.65% |
| COc1ccccc1OP(C)(=O)Nc1ccc(Br)cc1 (centres undefined) | inactive: -0.66% |
| COc1ccc2c(c1O)-c1c(O)c(OC)cc3c1[C@H](C2)[N+](C)(C)CC3.O=[N+]([O-])c1cc([N+](=O)[O-])c([O-])c([N+](=O)[O-])c1[O-] | inactive: -0.63% |
| O=C(OC1CN2CCC1CC2)c1ccc([N+](=O)[O-])cc1 (centres undefined) | inactive: 0.19% |
| O=C(OCCN1CCN(CCOCc2ccccc2)CC1)C(O)(c1ccccc1)c1ccccc1 | inactive: -0.41% |

| Compound | inhibition |
| --- | --- |
| CP(=O)(Nc1ccccc1F)Oc1ccccc1 (centres undefined) | inactive: -0.08% |
| CC(C)c1ccc(OP(C)(=O)Nc2ccc(SC(F)(F)F)cc2)cc1 (centres undefined) | inactive: -0.05% |
| O=[N+]([O-])c1cc([N+](=O)[O-])c(Nc2ccc(Cl)cc2)c([N+](=O)[O-])c1 | inactive: -4.73% |
| CP(=O)(Nc1ccccc1)Oc1ccc(F)cc1 (centres undefined) | inactive: -0.04% |
| CCCCCOc1ccc(NP(C)(=O)Oc2ccc(Cl)cc2Cl)cc1 (centres undefined) | inactive: 0.02% |
| O=[N+]([O-])c1cc([N+](=O)[O-])c(OC2CCCCC2O)c([N+](=O)[O-])c1 (centres undefined) | inactive: 0.28% |
| Cc1c([N+](=O)[O-])cc([N+](=O)[O-])c(Br)c1[N+](=O)[O-] | inactive: -0.44% |
| CCN(CC)CCCOC(=O)C(O)(c1ccccc1)C1CCCCC1 (centres undefined) | inactive: -0.55% |
| CCOC(=O)c1ccc(NP(C)(=O)Oc2ccc(F)cc2)cc1 (centres undefined) | inactive: -0.21% |
| COc1ccc(OP(C)(=O)Nc2ccc(SC(F)(F)F)cc2)cc1 (centres undefined) | inactive: 0.36% |
| CCN(CC)CCCNc1ccccc1[N+](=O)[O-].O=[N+]([O-])c1cc([N+](=O)[O-])c(O)c([N+](=O)[O-])c1 | inactive: 2.13% |
| Cc1c(C(c2ccc3c(c2)OCO3)c2c(C)n(C)n(-c3ccccc3)c2=O)c(=O)n(-c2ccccc2)n1C.O=[N+]([O-])c1cc([N+](=O)[O-])c(O)c([N+](=O)[O-])c1 | inactive: -0.14% |
| O=[N+]([O-])c1ccc(OP2(=O)COCCO2)cc1 (centres undefined) | inactive: -0.34% |
| O=[N+]([O-])c1cc([N+](=O)[O-])c(NCC2CCS(=O)(=O)C2)c([N+](=O)[O-])c1 (centres undefined) | inactive: -0.81% |
| Cc1cc(-c2cccc3ccccc23)c(C)cn1.O=[N+]([O-])c1cc([N+](=O)[O-])c(O)c([N+](=O)[O-])c1 | inactive: -0.15% |
| CN(C)CCOC(=O)C(O)(c1ccccc1)C1CCCCC1 (centres undefined) | inactive: 0.12% |
| COc1ccc(NP(C)(=O)Oc2ccccc2OC)cc1 (centres undefined) | inactive: -0.5% |
| COc1ccc(OP(C)(=O)Nc2cccc(Br)c2)cc1 (centres undefined) | inactive: -0.55% |
| Cc1ccccc1NP(C)(=O)Nc1ccccc1C | inactive: 0.54% |
| O=[N+]([O-])c1cc([N+](=O)[O-])c(C(F)(F)F)c([N+](=O)[O-])c1O | inactive: 0.19% |
| CP(=O)(Nc1ccc2c(c1)OCCO2)Oc1ccccc1 (centres undefined) | inactive: -1.22% |
| CCOP(C)(=S)SCC(=O)NC(C)(CC)C(=O)O (centres undefined) | inactive: -0.72% |
| CCOP(=O)(CC)OCC | inactive: 0.57% |
| CP(=O)(Nc1ccc(SC(F)(F)F)cc1)Oc1ccc(F)cc1 (centres undefined) | inactive: -0.5% |
